Measurements as given in publication PMC3674958 (Investigational new drugs, 2012).

Conditions: human, in vivo, 400 mg

CNC(=O)c1cc(Oc2ccc(NC(=O)Nc3ccc(Cl)c(C(F)(F)F)c3)cc2)ccn1 [Sorafenib]
AUC0-8h: 4900 ± 2300 ng·h/mL
Cmax: 1190 ± 540 ng/mL
